Assay results from US10106542B2, “Substituted 6,7-dihydropyrazolo[1,5-a]pyrazines as negative allosteric modulators of mGluR2 receptors” (Janssen Pharmaceutica NV, priority 2013, dated 2018).

Amino acid sequences for entries named in this document (tags omitted). Residues count along the entry.
UniProt Q14416, 19-872 limits assumed: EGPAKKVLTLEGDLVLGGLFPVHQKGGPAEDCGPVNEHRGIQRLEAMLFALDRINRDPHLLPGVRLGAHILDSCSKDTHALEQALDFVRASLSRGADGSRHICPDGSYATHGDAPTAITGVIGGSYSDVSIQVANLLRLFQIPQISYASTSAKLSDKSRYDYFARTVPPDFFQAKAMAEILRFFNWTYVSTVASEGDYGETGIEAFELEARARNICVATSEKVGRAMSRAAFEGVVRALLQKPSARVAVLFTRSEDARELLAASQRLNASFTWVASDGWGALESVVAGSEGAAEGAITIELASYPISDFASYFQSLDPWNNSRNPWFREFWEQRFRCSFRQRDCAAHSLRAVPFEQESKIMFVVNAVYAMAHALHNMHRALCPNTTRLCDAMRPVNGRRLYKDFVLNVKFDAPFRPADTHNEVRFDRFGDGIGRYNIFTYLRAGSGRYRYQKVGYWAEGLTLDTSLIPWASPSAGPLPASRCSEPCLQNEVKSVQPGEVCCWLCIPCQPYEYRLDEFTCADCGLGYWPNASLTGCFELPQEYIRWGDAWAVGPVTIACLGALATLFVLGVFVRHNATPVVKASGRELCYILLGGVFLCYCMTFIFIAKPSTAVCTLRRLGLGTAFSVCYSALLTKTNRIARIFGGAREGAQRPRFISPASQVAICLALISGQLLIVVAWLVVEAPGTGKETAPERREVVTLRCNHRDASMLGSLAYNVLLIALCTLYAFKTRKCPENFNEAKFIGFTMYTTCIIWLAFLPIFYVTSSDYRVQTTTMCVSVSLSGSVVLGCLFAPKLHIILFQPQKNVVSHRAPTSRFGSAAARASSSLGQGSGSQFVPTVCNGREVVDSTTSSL

Assays:
rats = test: Reversal of the effect of the mGluR2 PAM JNJ-42153605 on scopolamine-induced hyperlocomotion; settings: Route SC, test compound 60 min before recording, criterion total distance >1500 cm
Description: 2) Reversal of the Effect of the mGluR2 PAM JNJ-42153605 on Scopolamine-Induced Hyperlocomotion Apparatus
Motor activity was measured in microprocessor-based motor activity arenas (closed gray PVC cylinders with a height of 39 cm and a diameter of 31 cm). Each arena was placed on an infrared LED (8×8 LEDs) lit box (white PVC squared box; 40×40 cm^2; height 12.5 cm. An infrared-sensitive tube camera and a white light source were mounted to the ceiling above the observation chamber to track the animal. The total distance traveled (cm) was recorded and analyzed using the Noldus Ethovision XT Video Tracking System (Version 7.0.418; Noldus, Wageningen, The Netherlands). The intensity of the light within the activity cages (measured in the centre at the level of the floor) ranged between 4 and 8 LUX.
The rats were pretreated with test compound or vehicle at 60 min before the start of the activity recordings and placed into individual cages. […]

Wiga rats = test: Reserpine interaction test in rats; settings: Route PO, Time 60, reserpine 10 mg/kg SC
Description: 4) Reserpine Interaction Test in Rats
It was investigated to what extent the mydriatic action of test compounds was sufficient to counteract the miosis induced by the monoamines-depleting agent reserpine (10 mg/kg; SC) in Wiga rats.
For instance, Co. No. 1 induced mydriasis before the reserpine challenge (ED50: 1.78 mg/kg s.c.; 1.55 mg/kg p.o., −1 h; 0.89 mg/kg, p.o., −4 h) and reversed the reserpine-induced ptosis (ED50: 1.03 mg/kg s.c.; 0.78 mg/kg p.o., −1 h; 0.78 mg/kg, p.o., −4 h), miosis (ED50: 4.1 mg/kg s.c.; 9.4 mg/kg p.o., −1 h; 9.4 mg/kg, p.o., −4 h) and sedation (ED50: 9.4 mg/kg s.c.; 7.1 mg/kg p.o., −1 h; 14 mg/kg, p.o., −4 h). The effects are illustrated in FIG. 3. […] The reference mGlu2 NAMs RO-4995819 (40 mg/kg, p.o.), RO-4491533 (40 mg/kg, p.o.; 10 mg/kg, s.c.) and [CAS 579473-69-1] (40 mg/kg, s.c.) were devoid of these interactions with reserpine.

human mGlu2 receptor = human mGlu2 receptor (Homo sapiens, UniProt Q14416); test: [35S]GTPγS binding assay (mGluR2 negative allosteric modulation); settings: for GTPγS - hmGluR2 anGT pIC50: membranes from CHO cells transfected with human mGlu2 receptor, glutamate 60 μM, pIC50 = −log IC50 (M); for GTPγS - hmGluR2 anGT Emax: relative maximal effect: maximal % inhibition relative to the control glutamate response

**Q.** Which ED50, reversal of the effect of JNJ 42153605 on scopolamine-induced hyperlocomotion (rats) does the source give for `Cc1cc(-c2cnn3c2C(=O)N(c2ccc(C(F)(F)F)cc2)C[C@H]3C)ccn1` here?
**A.** The ED50, reversal of the effect of JNJ 42153605 on scopolamine-induced hyperlocomotion was > 10 mg/kg.

**Q.** And the ED50, reversal of reserpine-induced ptosis (Wiga rats)?
**A.** The ED50, reversal of reserpine-induced ptosis was 0.5 mg/kg.

**Q.** And the “GTPγS - hmGluR2 anGT pIC50” value (human mGlu2 receptor)?
**A.** The value was 6.76.

**Q.** What about the “GTPγS - hmGluR2 anGT Emax” value (human mGlu2 receptor) of the same compound?
**A.** Its value is 105%.

**Q.** With `COCC1CN(c2ccc(C(F)(F)F)cc2)C(=O)c2c(-c3ccnc(C)c3)cnn21` (stereo not shown) as the compound, how does the “GTPγS - hmGluR2 anGT pIC50” value (human mGlu2 receptor) read?
**A.** The value was 7.02.

**Q.** What about the “GTPγS - hmGluR2 anGT Emax” value (human mGlu2 receptor) of the same compound?
**A.** The value was 103%.

**Q.** What does the source list for `C[C@H]1CN(c2ccc(C(F)(F)F)cc2)C(=O)c2c(-c3ccnc(CO)c3)cnn21`?
**A.** GTPγS - hmGluR2 anGT pIC50 (human mGlu2 receptor): 6.19; GTPγS - hmGluR2 anGT Emax (human mGlu2 receptor): 103%

**Q.** Which results are given for `Cc1cc(-c2cnn3c2C(=O)N(c2ccc(C(F)(F)F)cc2)C[C@@H]3C)ccn1` [compound 1, (7S)-7-Methyl-3-(2-methylpyridin-4-yl)-5-[4-(trifluoromethyl)phenyl]-6,7-dihydropyrazolo[1,5-a]pyrazin-4(5H)-one]?
**A.** GTPγS - hmGluR2 anGT pIC50 (human mGlu2 receptor): 7.72; GTPγS - hmGluR2 anGT Emax (human mGlu2 receptor): 103%
